Tested on: ERK
Assay: ERK activation in NS20Y neuroblastoma cells, immunoblotting for dually phosphorylated ERK
Format: cell-based, mouse

**Q.** `CCCN1CCC[C@@H]2Cc3n[nH]cc3C[C@H]21` [quinpirole] was tested. Which ERK activation did it give?
**A.** The ERK activation was “stimulated a short-lived ERK activation”.
